This test addresses CDK9/Cyclin T1 (Homo sapiens, UniProt P50750). Briefly: Kinase assay using CDK9/Cyclin T1. The conditions noted are these: read-out: CDK9 (activity range).

By UniProt entry, the sequences of proteins in these tests, tags left out.
UniProt P50750, whole entry: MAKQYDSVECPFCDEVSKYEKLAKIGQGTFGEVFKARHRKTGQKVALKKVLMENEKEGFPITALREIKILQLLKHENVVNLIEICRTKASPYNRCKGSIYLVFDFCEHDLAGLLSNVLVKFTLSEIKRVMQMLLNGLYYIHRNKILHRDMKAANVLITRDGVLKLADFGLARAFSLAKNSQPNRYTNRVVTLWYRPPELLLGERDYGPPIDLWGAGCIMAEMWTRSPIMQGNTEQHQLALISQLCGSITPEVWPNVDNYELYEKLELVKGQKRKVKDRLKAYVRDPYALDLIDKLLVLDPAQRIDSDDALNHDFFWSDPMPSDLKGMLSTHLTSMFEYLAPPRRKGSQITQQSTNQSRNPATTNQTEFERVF
UniProt O60563, whole entry partner: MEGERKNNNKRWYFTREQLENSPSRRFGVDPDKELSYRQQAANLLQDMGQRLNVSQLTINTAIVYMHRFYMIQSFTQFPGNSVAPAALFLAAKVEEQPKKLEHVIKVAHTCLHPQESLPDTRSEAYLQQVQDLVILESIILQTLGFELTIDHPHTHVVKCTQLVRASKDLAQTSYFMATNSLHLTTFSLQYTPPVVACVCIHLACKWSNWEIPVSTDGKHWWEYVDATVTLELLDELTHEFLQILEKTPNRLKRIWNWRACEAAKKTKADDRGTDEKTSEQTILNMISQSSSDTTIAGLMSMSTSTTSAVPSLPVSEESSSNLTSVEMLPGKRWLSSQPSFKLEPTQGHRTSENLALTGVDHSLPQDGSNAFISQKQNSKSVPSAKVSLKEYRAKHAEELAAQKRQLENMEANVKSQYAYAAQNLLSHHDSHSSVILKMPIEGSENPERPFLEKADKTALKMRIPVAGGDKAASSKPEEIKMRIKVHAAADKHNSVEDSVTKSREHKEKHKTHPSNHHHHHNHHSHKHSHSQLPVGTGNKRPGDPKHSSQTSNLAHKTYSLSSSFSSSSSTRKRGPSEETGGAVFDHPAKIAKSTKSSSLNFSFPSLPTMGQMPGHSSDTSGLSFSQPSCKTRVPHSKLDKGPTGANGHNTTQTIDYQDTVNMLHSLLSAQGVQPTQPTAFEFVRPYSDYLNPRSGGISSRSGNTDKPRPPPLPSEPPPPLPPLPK

Turning to `CCCS(=O)(=O)N(c1ccc(Nc2ncnc(-c3ccccc3OC)c2C)cc1)S(=O)(=O)CCC`, the IC50 lay within 10 to 250 µM.

Turning to `COc1ccccc1-c1cc(Nc2ccc(NC(=O)c3cc4ccccc4cc3O)cc2)ncn1`, the IC50 fell in the range of 1 to 10 µM.

Values taken from patent US8084457B2, “Pharmaceutically active 4,6-disubstituted aminopyrimidine derivatives as modulators of protein kinases” (Lead Discovery Center GmbH, priority 2003, dated 2011).
